Protein sequences, listed by entry. Tags and fused reporters are not part of them.
UniProt Q9UGN5, whole entry, species assumed: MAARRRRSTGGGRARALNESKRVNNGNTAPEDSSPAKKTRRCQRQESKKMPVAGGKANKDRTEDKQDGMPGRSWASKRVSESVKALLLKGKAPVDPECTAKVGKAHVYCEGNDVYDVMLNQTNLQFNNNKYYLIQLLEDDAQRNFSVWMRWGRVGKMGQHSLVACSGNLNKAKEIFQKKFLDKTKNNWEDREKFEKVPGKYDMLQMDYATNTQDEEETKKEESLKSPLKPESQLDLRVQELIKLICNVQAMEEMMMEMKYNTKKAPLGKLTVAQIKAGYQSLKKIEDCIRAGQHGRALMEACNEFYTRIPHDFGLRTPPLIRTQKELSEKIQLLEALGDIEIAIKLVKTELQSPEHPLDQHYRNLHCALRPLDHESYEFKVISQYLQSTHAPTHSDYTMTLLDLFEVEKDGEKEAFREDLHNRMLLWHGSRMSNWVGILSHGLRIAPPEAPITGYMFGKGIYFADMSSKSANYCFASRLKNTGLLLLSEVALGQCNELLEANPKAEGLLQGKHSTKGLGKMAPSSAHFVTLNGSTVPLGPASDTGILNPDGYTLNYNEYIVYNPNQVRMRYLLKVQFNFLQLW

According to patent US11844795B2, “Combination therapy for cancer treatment” (Ipsen Biopharm Ltd., priority 2015, dated 2023):

Experiments:
[1] = tested on: SUM149PT; experiment: Cell survival (CellTiter-Glo) after SN-38 and/or PARP inhibitor; type: cell-based; conditions: Exp. 2, single agent
[2] = tested on: BT549; experiment: as above; type: cell-based; conditions: Exp. 2, single agent
[3] = tested on: BT20; experiment: as above; type: cell-based; conditions: Exp. 2, single agent
[4] = tested on: SUM159PT; experiment: as above; type: cell-based; conditions: Exp. 2, single agent
[5] = tested on: HCC70; experiment: as above; type: cell-based; conditions: Exp. 2, single agent
[6] = target: PARP 2 (Homo sapiens, UniProt Q9UGN5); conditions: cited from earlier work

| SMILES | Maximum Kill Percent [1] | Maximum Kill Percent [2] | Maximum Kill Percent [3] | Maximum Kill Percent [4] | Maximum Kill Percent [5] | IC50 [6] |
| --- | --- | --- | --- | --- | --- | --- |
| O=C(c1cc(Cc2n[nH]c(=O)c3ccccc23)ccc1F)N1CCN(C(=O)C2CC2)CC1 [Olaparib] | 100% | 100% | 98% | 94% | 50% |  |
| O=C(COc1cccc2c(=O)[nH]ccc12)c1ccccc1 [UPF-1069] |  |  |  |  |  | 300 nM |
